Earlier results, collected in patent US11701433B2, “Complexes for delivery of antigenic peptides” (The Regents of the University of Michigan, priority 2017, dated 2023).

Test system: HNSCC cells
Conditions: 5 μg/ml cetuximab alone; cited from earlier work

Substance: cetuximab: EGFR-targeted antibody that activates antibody-dependent cytotoxicity (ADCC)
- cytotoxic effects: did not demonstrate any cytotoxic effects
